Screening results from PubChem.
Only some compounds are listed: those with a hit (about 1.5% of all), similar ones and a draw of the others.
DSG3 Ab inh = inhibitors of pemphigus antibody binding to DSG3, primary screen, biochemical, bead-based, flow cytometry, scFv-GFP; Desmoglein-3 (Homo sapiens), P32926; DSG3-coupled beads, scFv-anti-DSG3-GFP binding; active compounds read low; binding (percent of control), % at 10 µM; 310,000 compounds, 0.48% hits;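 active = binding more than 3 SD below its plate's average and above zero; inconclusive = below that plate limit but binding exactly zero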;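 note: hits lower antibody fragment binding to DSG3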
PABP1 MLLE inh = inhibitors of PABP1 MLLE–PAM2 peptide binding, primary screen, biochemical, fluorescence polarization, FITC-PAM2, GST-MLLE | 360,000 compounds, 0.36% hits | AID 588489, 2011 | inhibition, % at 20 µM | Polyadenylate-binding protein 1 (Homo sapiens), P11940; in the data active = inhibition above about 35%, passing the limit was not always enough;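 note: plate controls were DMSO wells with GST-MLLE for no effect and wells lacking GST-MLLE protein for full effect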
PABP FP inh = PABP poly(A) RNA binding inhibitors, primary screen, biochemical, fluorescence polarization, uHTS | Polyadenylate-binding protein 1 (Homo sapiens), P11940 | calls only at 35 µM | 290,000 compounds, 1% hits | AID 2014, 2009;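 note: calls also rest on retests at 20 µM and on dose response follow-up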
UUG fidelity = modulators of start codon recognition fidelity in yeast; AID 602363; hit rate 0.13% among 350,000; activity score, % at 18.7 µM; S. cerevisiae UUG-firefly luciferase reporter, luminescence/redox ratio;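 active = replicate mean at a twofold rise or more, about +100% in these data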;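 note: firefly luciferase made from a UUG start codon reports start codon fidelity; reporter light over untreated wells divided by growth signal over untreated wells; some hits fall short of that in this replicate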
eIF4H inh = human eIF4H binding inhibitors, primary screen, translation initiation inhibitor project, biochemical, uHTS, fluorescence polarization. Eukaryotic translation initiation factor 4H (Homo sapiens), Q15056. eIF4H fluorescence polarization binding assay. inhibition, % at 35 µM. 290,000 compounds, 0.94% hits;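 note: calls also rest on retests at 20 µM and on dose response follow-up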
* marks the source's active call; other numbers are inactive results; i = inactive; ? = inconclusive; . = not tested or not shown; + = active, no number. Unless noted, the rule behind the calls is not given here.

Sequences of proteins named here, by UniProt entry; tags and fusion partners are left off.
Desmoglein-3 (Homo sapiens), P32926, UniProt P32926, whole entry, looked up: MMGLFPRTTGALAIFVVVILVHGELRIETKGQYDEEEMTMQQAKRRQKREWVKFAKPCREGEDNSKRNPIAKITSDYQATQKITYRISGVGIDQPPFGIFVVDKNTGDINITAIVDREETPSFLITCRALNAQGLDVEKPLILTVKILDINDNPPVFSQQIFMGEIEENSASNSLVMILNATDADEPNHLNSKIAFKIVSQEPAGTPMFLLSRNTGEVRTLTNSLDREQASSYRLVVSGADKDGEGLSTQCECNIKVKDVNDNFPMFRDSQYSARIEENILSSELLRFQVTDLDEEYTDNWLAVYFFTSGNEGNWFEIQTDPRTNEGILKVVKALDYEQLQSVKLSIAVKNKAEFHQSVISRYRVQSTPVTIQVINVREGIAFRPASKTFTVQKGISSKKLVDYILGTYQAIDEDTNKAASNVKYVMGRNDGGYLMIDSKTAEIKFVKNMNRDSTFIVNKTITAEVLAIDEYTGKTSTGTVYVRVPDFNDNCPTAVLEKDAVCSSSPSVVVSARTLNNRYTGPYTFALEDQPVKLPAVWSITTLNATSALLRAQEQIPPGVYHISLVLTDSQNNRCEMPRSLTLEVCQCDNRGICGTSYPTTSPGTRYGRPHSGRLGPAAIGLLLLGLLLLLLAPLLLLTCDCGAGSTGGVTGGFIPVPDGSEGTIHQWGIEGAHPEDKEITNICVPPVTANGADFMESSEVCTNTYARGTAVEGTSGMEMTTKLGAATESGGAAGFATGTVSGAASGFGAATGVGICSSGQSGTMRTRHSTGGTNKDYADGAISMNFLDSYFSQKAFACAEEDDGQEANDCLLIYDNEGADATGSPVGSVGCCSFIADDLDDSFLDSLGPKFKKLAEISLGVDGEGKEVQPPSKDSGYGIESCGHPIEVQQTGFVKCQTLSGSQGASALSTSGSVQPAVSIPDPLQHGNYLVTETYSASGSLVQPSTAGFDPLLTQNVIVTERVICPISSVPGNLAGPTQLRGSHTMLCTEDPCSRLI
Polyadenylate-binding protein 1 (Homo sapiens), P11940, UniProt P11940, whole entry, looked up: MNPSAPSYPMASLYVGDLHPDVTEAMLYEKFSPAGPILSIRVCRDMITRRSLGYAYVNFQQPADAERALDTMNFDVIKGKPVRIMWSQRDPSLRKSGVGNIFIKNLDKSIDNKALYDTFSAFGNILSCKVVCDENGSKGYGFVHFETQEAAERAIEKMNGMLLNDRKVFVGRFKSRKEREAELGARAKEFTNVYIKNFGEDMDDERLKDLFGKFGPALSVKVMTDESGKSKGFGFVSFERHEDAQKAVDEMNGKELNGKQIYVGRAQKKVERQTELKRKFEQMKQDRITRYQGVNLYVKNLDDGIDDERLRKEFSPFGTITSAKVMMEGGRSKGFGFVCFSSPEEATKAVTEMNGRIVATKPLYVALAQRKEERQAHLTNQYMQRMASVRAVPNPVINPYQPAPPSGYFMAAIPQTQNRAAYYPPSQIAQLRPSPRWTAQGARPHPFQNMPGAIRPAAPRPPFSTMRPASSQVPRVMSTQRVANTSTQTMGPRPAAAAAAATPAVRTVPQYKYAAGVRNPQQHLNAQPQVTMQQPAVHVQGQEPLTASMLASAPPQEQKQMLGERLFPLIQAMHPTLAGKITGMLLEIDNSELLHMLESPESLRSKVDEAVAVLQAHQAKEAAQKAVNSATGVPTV

SMILES,DSG3 Ab inh,PABP1 MLLE inh,PABP FP inh,UUG fidelity,eIF4H inh
Cc1sc2nc(CSc3nc4ccccc4c(=O)n3CCCN3CCOCC3)[nH]c(=O)c2c1C,.,-75,+,-8,?
Cc1noc(C)c1S(=O)(=O)N(C)C[C@@H]1OCCCC[C@@H](C)Oc2ccc(NC(=O)Nc3cccc4ccccc34)cc2C(=O)N([C@@H](C)CO)C[C@H]1C,.,.,.,-13,.
O=C1NN(c2ccccc2)C(=O)/C1=C\c1ccc(-c2cc([N+](=O)[O-])ccc2O)o1,97,-16,+,.,92*
O=c1[nH]c(C2CCCN(S(=O)(=O)c3ccccc3Cl)C2)nc2c1nnn2Cc1ccc2c(c1)OCCO2 (configuration not stated),77*,4,.,-25,.
CCOc1ccc(C2Nc3cccc4cccc(c34)N2)cc1OC,102,-11,+,.,103*
COc1cc(OC)c(C2Nc3cccc4cccc(c34)N2)c(OC)c1,135,19,+,-17,70*
CCOc1cc(C2Nc3cccc4cccc(c34)N2)ccc1O,.,6,i,19,47
COc1ccc(C2Nc3cccc4cccc(c34)N2)cc1,89,-5,i,.,43
CCCNC(=O)N(C)C[C@H]1Oc2ncc(-c3ccccc3)cc2C(=O)N([C@@H](C)CO)C[C@@H]1C,.,.,.,-4,.
Cc1ccc(S(=O)(=O)N(CC(=O)O)Cc2ccco2)cc1,96,13,+,.,71*
O=S(=O)(NCc1ccccc1)c1ccc(S(=O)(=O)N(Cc2ccccn2)Cc2ccco2)cc1,76*,8,i,-8,-4
COc1ccccc1N(CC(=O)NCc1ccco1)S(=O)(=O)c1ccc(C)cc1,-60*,18,+,-5,87*
CCOc1ccccc1N(CC(=O)NCCSc1ccccn1)S(=O)(=O)c1ccc(C)cc1,90,6,+,8,86*
Cc1ccc(S(=O)(=O)N(Cc2ccccc2)Cc2ccco2)cc1,113,0,i,-15,-10
CN1c2ccc(Br)cc2[C@@H]2[C@@H](CCN2S(=O)(=O)c2cccc(F)c2)[C@H]1CO,.,.,.,-12,.
CCCNC(=O)N1[C@H](CO)[C@H]2c3ccccc3N(C(=O)Nc3cccc(F)c3)C[C@H]21,.,.,.,1,.
CC(C)C#Cc1cnc2c(c1)C(=O)N([C@@H](C)CO)C[C@@H](C)[C@@H](CN(C)C(=O)Cc1ccccn1)O2,.,.,.,-10,.
CSc1sc(C(=O)NCC2CC2)c2c1S(=O)(=O)N(C)c1ccccc1-2,93*,-10,i,.,-6
CSc1sc(C(=O)NCC2CC2)c(-c2cccs2)c1C#N,92,-7,i,-17,-5
CO[C@@H]1CN(C)C(=O)c2cc(NC(=O)C3CCCC3)ccc2OC[C@@H](C)N(S(=O)(=O)c2ccc(Cl)cc2)C[C@H]1C,.,.,.,3,.
C[C@H]1CN([C@@H](C)CO)C(=O)c2cccc(NS(=O)(=O)c3cn(C)cn3)c2O[C@H]1CN(C)C,.,.,.,2,.
O=C(C1CC(c2cccc(Br)c2)=NO1)N1CCc2ccccc2C1 (configuration not stated),100,-1,i,-10,53*
O=C(O)C1CC(c2cccc(Br)c2)=NO1 (configuration not stated),119,-12,i,-22,-6
CC(C)NC(=O)N(C)C[C@@H]1OCCCC[C@H](C)Oc2ccc(NS(=O)(=O)c3ccccc3)cc2C(=O)N([C@@H](C)CO)C[C@@H]1C,.,.,.,1,.
CCOc1cc([C@@H]2C[C@H]3CN(c4ccccc4)C(=O)[C@]34CCCN24)ccc1OC,163,-30,i,2,57*
COc1ccc(-n2ccnc(SCC(=O)NC3CCCCC3)c2=O)cc1,95,24,i,-10,-9
O=C(CSc1nccn(-c2ccc(Br)cc2)c1=O)NC1CCCC1,100,45*,.,-20,.
O=C(CSc1nccn(-c2ccc(Br)cc2)c1=O)Nc1ccccc1F,91,35,.,-12,.
Cc1ccc(-n2ccnc(SCC(=O)NC3CCCCC3)c2=O)cc1F,97,41*,.,-13,.
COc1ccc(-n2ccnc(SCC(=O)NC3CCCC3)c2=O)cc1OC,100,51*,.,.,.

Entries listed above printed as active in DSG3 Ab inh.
SMILES,DSG3 Ab inh,PABP1 MLLE inh,PABP FP inh,UUG fidelity,eIF4H inh
O=c1[nH]c(C2CCCN(S(=O)(=O)c3ccccc3Cl)C2)nc2c1nnn2Cc1ccc2c(c1)OCCO2 (configuration not stated),77*,4,.,-25,.
O=S(=O)(NCc1ccccc1)c1ccc(S(=O)(=O)N(Cc2ccccn2)Cc2ccco2)cc1,76*,8,i,-8,-4
COc1ccccc1N(CC(=O)NCc1ccco1)S(=O)(=O)c1ccc(C)cc1,-60*,18,+,-5,87*
CSc1sc(C(=O)NCC2CC2)c2c1S(=O)(=O)N(C)c1ccccc1-2,93*,-10,i,.,-6

Continuation:
SMILES,DSG3 Ab inh,PABP1 MLLE inh,PABP FP inh,UUG fidelity,eIF4H inh
COc1ccc(CNC(=O)CSc2nccn(-c3ccc(F)c(F)c3)c2=O)cc1,110,30,.,-19,.
COc1ccc(-n2ccnc(SCC(=O)NC3CCCC3)c2=O)cc1,107,41*,i,-3,-1
CC(=O)Nc1ccc(C2=NNC(=NCC3CCCO3)SC2)cc1 (configuration not stated),103,-22,i,-16,-4
Fc1ccc(F)c(C2=NNC(=NCC3CCCO3)SC2)c1 (configuration not stated),101,64*,i,.,-13
COc1ccc(CN(C)C[C@H]2OCc3cn(nn3)CCCC(=O)N([C@@H](C)CO)C[C@H]2C)cc1,.,.,.,-8,.
Cc1n[nH]c(=O)nc1NCc1ccc(Cl)cc1,112,-1,i,-18,-2
O=c1[nH]ncc(NCc2ccc(Cl)cc2)c1Cl,81,-10,+,.,0
C[C@@H]1CN([C@@H](C)CO)C(=O)c2cc(NC(=O)C3CCCCC3)ccc2O[C@@H](C)CCCCO[C@@H]1CN(C)S(=O)(=O)c1ccc(Cl)cc1,.,.,.,-10,.
Cn1nc(C(F)(F)F)cc1-c1ccc(/C=C(\C#N)C(=O)c2ccccc2)s1,124,-72,+,-29,102
C[C@@H]1CCCCO[C@H](CN(C)Cc2ccncc2)[C@@H](C)CN([C@@H](C)CO)C(=O)c2cc(NS(=O)(=O)c3ccc(F)cc3)ccc2O1,.,.,.,13,.
C=CCOC(=O)C1=C(C)OC(N)=C(C#N)C1c1ccoc1 (configuration not stated),100,-20,i,-5,102*
C=CCOC(=O)C1=C(C)OC(N)=C(C#N)C1c1ccc2c(c1)OCO2 (configuration not stated),106,11,i,-1,0
CO[C@@H]1CN(C)C(=O)c2cc(NS(=O)(=O)c3ccccc3)ccc2OC[C@H](C)N(Cc2ccccn2)C[C@@H]1C,.,.,.,-24,.
COc1ccc(N2CCN(C(=O)NCc3ccc(OC)c(Cl)c3)CC2)cc1,44*,-1,i,.,-6
COc1ccc(N2CCN(C(=O)NCc3ccc(OC)c(OC)c3)CC2)cc1,.,-7,i,-6,1
COc1cc(N=c2ssnc2Cl)c(OC)cc1Cl,85*,16,i,-27,-2
Cc1cc(Cl)ccc1N=c1ssnc1Cl,53*,18,i,-40,0
Cc1ccc(N=c2ssnc2Cl)cc1,.,22,i,-20,0
COc1ccc(S(=O)(=O)N(C)C[C@@H]2OCCCC[C@@H](C)Oc3ccc(NS(=O)(=O)c4ccccc4)cc3C(=O)N([C@H](C)CO)C[C@H]2C)cc1,.,.,.,5,.
